{"source": "patent US11541063B2", "about": "“Compositions and products for use in the treatment of bone fractures and defects” (priority 2014, dated 2023)", "origin": "cited, not measured here", "system": "androgen receptor", "details": "fraction of testosterone potency; cited from earlier work", "data": [{"smiles": "C[C@]12CC[C@@H](O)C[C@@H]1CC[C@@H]1[C@@H]2CC[C@]2(C)C(=O)CC[C@@H]12", "note": "[androsterone]", "values": [{"measurement": "potency relative to the potency of testosterone", "value": "approximately 1/7"}]}]}
